# Results taken from ChEMBL document CHEMBL5370607 (J Med Chem, 2023).
# Sequences of proteins named here, by UniProt entry; tags and fusion partners are left off. A change or cut given only in a name is not applied to a line headed by its entry.
# UniProt P41595, whole entry: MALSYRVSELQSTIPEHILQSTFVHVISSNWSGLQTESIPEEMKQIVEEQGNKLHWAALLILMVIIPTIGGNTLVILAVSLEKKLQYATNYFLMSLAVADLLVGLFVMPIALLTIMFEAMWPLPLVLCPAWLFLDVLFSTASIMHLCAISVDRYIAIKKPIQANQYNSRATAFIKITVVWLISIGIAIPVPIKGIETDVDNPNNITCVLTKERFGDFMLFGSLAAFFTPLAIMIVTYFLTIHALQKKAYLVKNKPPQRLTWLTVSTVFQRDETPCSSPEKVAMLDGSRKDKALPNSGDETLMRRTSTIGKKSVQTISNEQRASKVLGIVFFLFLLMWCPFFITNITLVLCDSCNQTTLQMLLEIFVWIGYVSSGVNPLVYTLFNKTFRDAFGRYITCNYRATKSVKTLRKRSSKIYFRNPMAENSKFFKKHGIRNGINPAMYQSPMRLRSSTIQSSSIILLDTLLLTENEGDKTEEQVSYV
# UniProt P35348: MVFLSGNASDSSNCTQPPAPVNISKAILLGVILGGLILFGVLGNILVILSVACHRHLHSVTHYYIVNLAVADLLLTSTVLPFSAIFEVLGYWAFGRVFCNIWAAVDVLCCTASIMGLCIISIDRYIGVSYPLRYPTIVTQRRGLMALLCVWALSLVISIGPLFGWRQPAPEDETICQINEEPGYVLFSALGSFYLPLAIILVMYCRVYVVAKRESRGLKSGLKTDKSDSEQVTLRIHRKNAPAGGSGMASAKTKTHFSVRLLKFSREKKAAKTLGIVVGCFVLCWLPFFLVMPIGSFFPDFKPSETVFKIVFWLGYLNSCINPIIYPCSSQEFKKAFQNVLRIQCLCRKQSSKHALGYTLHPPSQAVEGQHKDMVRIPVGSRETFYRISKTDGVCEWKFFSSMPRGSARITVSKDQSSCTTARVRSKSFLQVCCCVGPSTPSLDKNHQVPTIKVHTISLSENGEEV
# UniProt P25100, whole entry, looked up: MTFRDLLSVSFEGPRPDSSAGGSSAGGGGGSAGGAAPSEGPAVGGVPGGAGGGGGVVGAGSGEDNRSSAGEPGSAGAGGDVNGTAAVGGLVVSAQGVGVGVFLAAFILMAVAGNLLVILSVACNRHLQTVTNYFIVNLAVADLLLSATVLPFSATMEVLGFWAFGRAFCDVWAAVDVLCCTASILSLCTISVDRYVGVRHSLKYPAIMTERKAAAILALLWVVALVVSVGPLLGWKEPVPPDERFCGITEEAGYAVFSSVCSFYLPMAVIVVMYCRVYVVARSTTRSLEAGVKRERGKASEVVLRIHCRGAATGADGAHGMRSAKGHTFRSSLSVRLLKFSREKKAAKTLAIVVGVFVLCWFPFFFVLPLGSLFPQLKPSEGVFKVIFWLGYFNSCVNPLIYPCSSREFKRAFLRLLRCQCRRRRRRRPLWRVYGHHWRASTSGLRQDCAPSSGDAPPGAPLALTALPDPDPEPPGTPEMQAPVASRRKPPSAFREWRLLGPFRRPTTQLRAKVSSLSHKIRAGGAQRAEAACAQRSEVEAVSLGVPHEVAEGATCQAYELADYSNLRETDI
# UniProt P35368, whole entry, looked up: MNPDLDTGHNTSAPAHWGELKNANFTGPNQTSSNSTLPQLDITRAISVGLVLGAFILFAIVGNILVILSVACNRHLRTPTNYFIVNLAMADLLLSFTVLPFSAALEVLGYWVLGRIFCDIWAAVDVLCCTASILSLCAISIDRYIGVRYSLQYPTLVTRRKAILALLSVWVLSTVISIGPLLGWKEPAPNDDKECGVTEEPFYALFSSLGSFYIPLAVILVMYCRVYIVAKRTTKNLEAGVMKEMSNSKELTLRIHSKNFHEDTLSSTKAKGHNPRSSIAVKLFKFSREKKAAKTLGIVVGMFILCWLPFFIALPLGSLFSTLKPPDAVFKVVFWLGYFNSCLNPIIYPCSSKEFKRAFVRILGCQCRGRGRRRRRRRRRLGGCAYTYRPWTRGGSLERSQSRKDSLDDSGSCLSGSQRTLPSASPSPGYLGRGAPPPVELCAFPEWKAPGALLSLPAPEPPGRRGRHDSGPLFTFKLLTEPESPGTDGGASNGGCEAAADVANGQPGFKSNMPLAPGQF
# Active and inactive are the calls of the source. The rule behind the calls is not given here.
# Experiments:
# [1] = target: 5-hydroxytryptamine receptor 2B (Homo sapiens) (UniProt P41595); experiment: Binding affinity to 5-HT2B receptor (unknown origin) by radioligand binding assay
# [2] = target: Adrenergic receptor alpha-1 (Homo sapiens) (UniProt P35348+P25100+P35368); experiment: Binding affinity to adrenergic alpha-1 receptor (unknown origin) by radioligand binding assay; type: protein assay
smiles,measurement,setting,value
Clc1cccc(Cn2ccc3c(N4CCNCC4)nc4ccccc4c32)c1,Activity,[1],inactive
same,Activity,[2],inactive
